The target in test [1] is Sodium-dependent dopamine transporter (Rattus norvegicus, UniProt P23977).
Test [2] has as its target Norepinephrine transporter (Rattus norvegicus, UniProt Q9JIA2).

By UniProt entry, the sequences of proteins in these tests, tags left out.
UniProt P23977, whole entry: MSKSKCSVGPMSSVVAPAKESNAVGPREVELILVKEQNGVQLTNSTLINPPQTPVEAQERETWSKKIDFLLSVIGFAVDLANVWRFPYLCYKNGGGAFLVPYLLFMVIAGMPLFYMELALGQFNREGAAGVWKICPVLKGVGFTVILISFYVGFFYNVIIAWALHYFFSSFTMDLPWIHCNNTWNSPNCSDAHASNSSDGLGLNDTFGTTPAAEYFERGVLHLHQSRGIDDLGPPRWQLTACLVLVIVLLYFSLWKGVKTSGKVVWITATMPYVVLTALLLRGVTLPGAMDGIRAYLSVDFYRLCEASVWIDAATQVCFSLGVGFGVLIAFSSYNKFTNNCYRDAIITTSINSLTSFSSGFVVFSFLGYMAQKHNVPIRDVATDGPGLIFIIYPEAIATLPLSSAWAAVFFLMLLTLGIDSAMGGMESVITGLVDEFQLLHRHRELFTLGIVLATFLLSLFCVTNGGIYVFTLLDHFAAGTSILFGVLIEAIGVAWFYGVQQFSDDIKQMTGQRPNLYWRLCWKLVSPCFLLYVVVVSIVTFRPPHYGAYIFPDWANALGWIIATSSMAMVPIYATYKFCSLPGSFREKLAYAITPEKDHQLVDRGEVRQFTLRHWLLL

In general, Ki refers to the equilibrium dissociation constant of an inhibitor or competing ligand from its target. Higher therefore signals weaker binding.

Regarding `CNCC[C@@H](Oc1cccc2ccccc12)c1cccs1` [(R)-duloxetine], the Ki in test [1] came to 0.659 µM.

Consider `CNCC[C@H](Oc1cccc2ccccc12)c1cccs1` [DULOXETINE], for which the values for the Ki in test [1] and in test [2] were 0.369 µM and 0.0156 µM, respectively.
